Data taken from patent publication EP4830707A1, “PHARMACEUTICAL COMPOSITION FOR PREVENTING/TREATING OCULAR COMPLICATION IN CHRONIC GRAFT-VERSUS-HOST DISEASE” (dated 2026).

Protein sequences, listed by entry. Tags and fused reporters are not part of them.
UniProt Q13464, whole entry: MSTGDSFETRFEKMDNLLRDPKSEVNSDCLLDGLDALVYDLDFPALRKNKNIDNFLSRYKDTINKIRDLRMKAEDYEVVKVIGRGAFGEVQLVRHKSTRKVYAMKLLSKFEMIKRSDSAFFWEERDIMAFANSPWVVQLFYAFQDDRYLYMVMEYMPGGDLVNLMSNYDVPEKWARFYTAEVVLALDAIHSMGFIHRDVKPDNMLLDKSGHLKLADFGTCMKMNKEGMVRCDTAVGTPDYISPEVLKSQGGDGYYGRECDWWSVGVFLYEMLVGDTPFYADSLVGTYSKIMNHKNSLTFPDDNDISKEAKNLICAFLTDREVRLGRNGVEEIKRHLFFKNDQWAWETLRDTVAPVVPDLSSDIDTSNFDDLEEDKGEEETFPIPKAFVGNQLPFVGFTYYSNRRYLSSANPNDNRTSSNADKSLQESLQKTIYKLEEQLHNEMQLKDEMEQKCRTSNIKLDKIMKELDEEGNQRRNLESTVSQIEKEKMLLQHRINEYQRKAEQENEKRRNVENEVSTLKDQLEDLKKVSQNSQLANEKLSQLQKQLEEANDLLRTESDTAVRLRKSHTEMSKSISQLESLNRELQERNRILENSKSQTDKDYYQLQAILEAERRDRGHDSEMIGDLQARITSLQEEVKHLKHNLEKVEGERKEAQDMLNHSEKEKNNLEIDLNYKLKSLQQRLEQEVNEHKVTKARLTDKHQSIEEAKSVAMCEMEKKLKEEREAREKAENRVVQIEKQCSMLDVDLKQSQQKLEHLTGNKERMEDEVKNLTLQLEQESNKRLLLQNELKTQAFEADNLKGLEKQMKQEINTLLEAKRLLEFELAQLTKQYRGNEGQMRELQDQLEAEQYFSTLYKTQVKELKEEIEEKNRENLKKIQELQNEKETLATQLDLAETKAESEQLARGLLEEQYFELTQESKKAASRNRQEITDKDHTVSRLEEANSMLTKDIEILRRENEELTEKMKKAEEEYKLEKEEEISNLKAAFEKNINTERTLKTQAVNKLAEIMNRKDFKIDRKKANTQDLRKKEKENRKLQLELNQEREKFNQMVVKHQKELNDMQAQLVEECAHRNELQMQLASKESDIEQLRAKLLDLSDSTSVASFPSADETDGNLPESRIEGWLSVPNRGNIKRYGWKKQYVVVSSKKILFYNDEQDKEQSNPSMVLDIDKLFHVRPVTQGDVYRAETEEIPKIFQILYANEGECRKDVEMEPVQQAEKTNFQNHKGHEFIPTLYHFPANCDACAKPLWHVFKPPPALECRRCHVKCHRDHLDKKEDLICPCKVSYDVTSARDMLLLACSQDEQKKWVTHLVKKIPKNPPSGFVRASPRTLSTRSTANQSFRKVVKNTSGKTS
UniProt O75116, whole entry: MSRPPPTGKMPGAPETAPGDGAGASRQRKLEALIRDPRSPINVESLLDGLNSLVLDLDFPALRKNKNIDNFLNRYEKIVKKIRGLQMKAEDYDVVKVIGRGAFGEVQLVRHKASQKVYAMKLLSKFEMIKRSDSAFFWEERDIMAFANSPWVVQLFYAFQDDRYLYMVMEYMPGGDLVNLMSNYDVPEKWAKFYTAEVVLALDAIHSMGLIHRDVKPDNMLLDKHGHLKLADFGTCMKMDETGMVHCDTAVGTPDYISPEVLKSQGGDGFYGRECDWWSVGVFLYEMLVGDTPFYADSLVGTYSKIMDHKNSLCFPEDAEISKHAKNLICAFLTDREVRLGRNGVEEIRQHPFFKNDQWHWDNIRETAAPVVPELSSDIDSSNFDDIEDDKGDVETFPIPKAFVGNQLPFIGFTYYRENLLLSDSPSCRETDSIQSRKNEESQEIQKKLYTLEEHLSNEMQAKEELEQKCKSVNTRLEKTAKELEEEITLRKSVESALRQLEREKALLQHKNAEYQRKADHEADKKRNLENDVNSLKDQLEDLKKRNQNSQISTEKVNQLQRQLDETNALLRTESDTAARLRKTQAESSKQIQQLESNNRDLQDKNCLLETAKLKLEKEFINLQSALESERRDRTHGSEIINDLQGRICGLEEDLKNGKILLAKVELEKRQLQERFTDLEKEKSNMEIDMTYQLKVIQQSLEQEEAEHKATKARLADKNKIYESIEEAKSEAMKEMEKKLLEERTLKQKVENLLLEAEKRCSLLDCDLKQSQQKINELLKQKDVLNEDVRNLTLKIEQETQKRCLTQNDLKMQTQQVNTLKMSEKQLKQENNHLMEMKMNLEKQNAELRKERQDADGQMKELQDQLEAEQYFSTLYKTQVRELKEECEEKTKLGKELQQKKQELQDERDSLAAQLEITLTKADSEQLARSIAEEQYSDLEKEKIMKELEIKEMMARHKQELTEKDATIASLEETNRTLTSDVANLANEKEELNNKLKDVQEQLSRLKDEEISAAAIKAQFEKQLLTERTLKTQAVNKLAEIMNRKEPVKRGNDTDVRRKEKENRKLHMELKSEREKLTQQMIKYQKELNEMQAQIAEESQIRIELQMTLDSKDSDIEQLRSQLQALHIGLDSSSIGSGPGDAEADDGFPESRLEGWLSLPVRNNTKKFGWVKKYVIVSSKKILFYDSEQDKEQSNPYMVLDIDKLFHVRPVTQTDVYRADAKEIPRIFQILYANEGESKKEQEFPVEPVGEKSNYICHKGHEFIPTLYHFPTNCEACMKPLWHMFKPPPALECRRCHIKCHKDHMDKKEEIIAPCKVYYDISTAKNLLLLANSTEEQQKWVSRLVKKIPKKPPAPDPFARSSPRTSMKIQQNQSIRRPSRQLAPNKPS

How the values were obtained:
cGVHD model mice = assay: Evaluation of effects of improving ocular complications using cGVHD model animals
Experimental: cGVHD model mice were used to evaluate whether drug administration improved ocular complications in cGVHD.
The mice were created in the following manner.
Bone marrow transplantation was performed between 7-and 9-week-old allogeneic mice. Specifically, the transplantation was performed using male B10.D2 mice as donors and female BALB/c mice as recipients. This transplantation is hematopoietic stem cell transplantation with matched major histocompatibility complex (MHC) and mismatched minor histocompatibility antigen (MiHA). As controls, non-cGVHD models were also created, in which syngeneic hematopoietic stem cell transplantation was performed (donors and recipients were both BALB/c mice). The transplant method was as follows. The recipient was irradiated with 7 Gy of radiation, then 1 × 10^6 bone marrow cells and 2 × 10^6 spleen cells were each dissolved in 0.1 mL of RPMI solution and placed in one syringe, and a total of 0.2 mL was administered via the tail vein. The transplantation was carried out in a specific pathogen free (SPF) environment, and all experimental animals were similarly fed sterile water and food. The cGVHD model mice and non-cGVHD model mice were each analyzed 4 weeks after transplantation.
The mice were divided into a treatment group in which the compound 1 (concentration: from 0.02% to 0.5%) was administered by eye drops to GVHD model mice (hereinafter referred to as the H-1129 group), and a vehicle group in which phosphate-buffered saline (PBS) as a placebo was administered by eye drops to GVHD model mice. These two groups were compared with a control group in which PBS as a placebo was administered by eye drops to non-GVHD mice.
The eye drops were administered from the day before transplantation until the 27th day after transplantation. On the last day, the systemic GVHD scores and the tear volume by the cotton thread method were measured. The mice were dissected 28 days after transplantation, and the eyelids, eyeballs, and lacrimal glands were histopathologically examined.

ROCK1 = ROCK1 (Homo sapiens, UniProt Q13464); assay: Evaluation of ROCK inhibitory effect (phosphorylation reaction of substrates in vitro); conditions: read-out: ROCK1 inhibitory effect/ IC50 value, phosphorylation reaction of substrates by ROCK1
Description: (§1) Compounds 1 with various concentrations were used to calculate the concentration which inhibits 50% of the phosphorylation reaction of substrates by ROCK1 or ROCK2 in vitro (hereinafter referred to as "IC50 value").

ROCK2 = ROCK2 (Homo sapiens, UniProt O75116); assay: as above; conditions: read-out: ROCK2 inhibitory effect/ IC50 value, phosphorylation reaction of substrates by ROCK2
Description: as §1

[1] = 0.5% eye drops, histopathology 28 days after transplantation, in comparison to the vehicle group

IC50 (ROCK1): 520 nM | IC50 (ROCK2): 230 nM
SMILES: C[C@@H]1CNCCCCN1S(=O)(=O)c1ccc2cnccc2c1
amount of tear secretion (tear volume by the cotton thread method) (cGVHD model mice; 0.5% eye drops from the day before transplantation until the 27th day after transplantation, vehicle group 2.09 ± 0.29 mm, control group 4.29 ± 0.59 mm, p<0.001 vs vehicle): 3.42 ± 0.41 mm | eyelid fibrosis (cGVHD model mice; [1]): improved | major transcription factor Snail-positive cells indicating epithelial-mesenchymal transition (cGVHD model mice; [1]): few | GVHD scores (cGVHD model mice; 0.5% eye drops, systemic GVHD score on the last day, in comparison to the control group (non-GVHD mice)): significantly higher
